Earlier results, collected in patent publication US6761903B2, “Clear oil-containing pharmaceutical compositions containing a therapeutic agent” (Lipocine, Inc., priority 1999, dated 2004).

Details: as reported by the manufacturer of the commercial product, rough average or inventors' judgment

| Substance | HLB |
| --- | --- |
| Lactic acid esters of mono, diglycerides | <10 |
| PEG-4 laurate | 9.3 |
| PEG-6 laurate | 11.4 |
| PEG-10 sorbitan laurate | >10 |
| PEG-10-100 nonyl phenol | >10 |
| PEG-15-100 octyl phenol ether | >10 |
| PEG-40 laurate | 17.9 |
| Propylene glycol caprylate/caprate | >6 |
